How the values were obtained:
[1] = Third in vitro rumen fluid trial; conditions: 16 h
[2] = Third in vitro rumen fluid trial; conditions: 16 h; remark: listed apart in the source
[3] = Third in vitro rumen fluid trial; conditions: 16 h; remark: listed apart in the source

propane‐1,3‐diol
Major metabolite, share of the extractable radioactivity ([1]; aerobic): 57.8%
Major metabolite, share of the extractable radioactivity ([1]; anaerobic): 63.7%
Major metabolite, share of the extractable radioactivity ([2]; aerobic): 70.5%
Major metabolite, share of the extractable radioactivity ([2]; anaerobic): 46.8%
Major metabolite, share of the extractable radioactivity ([3]; aerobic): 66.4%
Major metabolite, share of the extractable radioactivity ([3]; anaerobic): 82.8%
Major metabolite formed at t = 24 h (Incubation of; from 3‐NOP 2.2 mg/L): 98.5%
Major metabolite formed at t = 24 h (Incubation of; from 3‐NOP 23 mg/L): > 97%

Source: publication PMC8603004 (EFSA Journal, 2021)
